Results on 1 compound are retold here after patent US9573956B2, “Compounds as dual inhibitors of phosphodiesterases and histone deacetylases” (FUNDACIÓN PARA LA INVESTIGACIÓN MÉDICA APLICADA, priority 2013, dated 2017).

Chains of the proteins cited; added tags and fusions are not shown. Residues count along the entry.
UniProt P27815, 1-647 isoform P27815-4: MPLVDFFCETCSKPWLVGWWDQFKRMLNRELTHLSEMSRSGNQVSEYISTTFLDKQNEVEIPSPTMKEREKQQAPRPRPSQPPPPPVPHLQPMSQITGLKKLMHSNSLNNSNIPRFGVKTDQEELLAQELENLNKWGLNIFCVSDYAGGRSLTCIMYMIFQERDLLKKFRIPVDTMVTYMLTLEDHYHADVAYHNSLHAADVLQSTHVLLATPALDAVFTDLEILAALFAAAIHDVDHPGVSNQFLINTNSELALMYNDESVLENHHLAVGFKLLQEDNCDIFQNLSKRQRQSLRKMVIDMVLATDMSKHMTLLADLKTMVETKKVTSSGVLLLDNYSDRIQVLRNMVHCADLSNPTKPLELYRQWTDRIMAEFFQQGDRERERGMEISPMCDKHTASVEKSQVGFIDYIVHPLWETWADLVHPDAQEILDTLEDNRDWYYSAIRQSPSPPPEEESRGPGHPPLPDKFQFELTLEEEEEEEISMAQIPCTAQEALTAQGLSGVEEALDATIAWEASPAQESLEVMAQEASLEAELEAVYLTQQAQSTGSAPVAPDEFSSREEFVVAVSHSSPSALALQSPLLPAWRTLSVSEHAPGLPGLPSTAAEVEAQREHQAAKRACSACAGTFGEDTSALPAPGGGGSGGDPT

This assay concerns the target T1, PDE4A1 (Homo sapiens, UniProt P27815).
T1 construct: they are full-length with N-terminal GST tag; GST (N); purchased BPS Biosciences 60040; host or cells: baculovirus infected Sf9 cells
The assay can be described thus: PDE enzyme activity assay (HTRF cGMP), PDE4A1. Type of assay: biochemical. Particulars: recombinant enzyme; read-out: PDE4A1 inhibition (IC50).

SMILES strings stand for the structures.

Turning to `CN1CC(=O)N2[C@H](c3ccc4c(c3)OCO4)c3[nH]c4ccccc4c3C[C@@H]2C1=O` [Tadalafil, reference compound], the 50% inhibitory concentration (IC50) is greater than 10 µM.
